# Laboratory results as given in ChEMBL document CHEMBL1157218, “Cycloviolacin H4, a hydrophobic cyclotide from Viola hederaceae” (J Nat Prod, 2006).
# Assay: Toxicity against human type A red blood cells assessed as hemolytic activity after 1hr
# Type: cell-based, Erythrocyte
# Conditions: read-out: HD50
structure (smiles),measurement,value
CC[C@H](C)[C@H](NC(=O)CN)C(=O)NCC(=O)N[C@@H](C)C(=O)N[C@H](C(=O)N[C@@H](CC(C)C)C(=O)N[C@@H](CCCCN)C(=O)N[C@H](C(=O)N[C@@H](CC(C)C)C(=O)N[C@H](C(=O)N[C@H](C(=O)NCC(=O)N[C@@H](CC(C)C)C(=O)N1CCC[C@H]1C(=O)N[C@@H](C)C(=O)N[C@@H](CC(C)C)C(=O)N[C@H](C(=O)N[C@@H](CO)C(=O)N[C@@H](Cc1c[nH]c2ccccc12)C(=O)N[C@H](C(=O)N[C@@H](CCCCN)C(=O)N[C@@H](CCCNC(=N)N)C(=O)N[C@@H](CCCCN)C(=O)N[C@@H](CCCNC(=N)N)C(=O)N[C@@H](CCC(N)=O)C(=O)N[C@@H](CCC(N)=O)C(N)=O)[C@@H](C)CC)[C@@H](C)CC)[C@@H](C)O)[C@@H](C)O)C(C)C)C(C)C [MELITTIN],HC50 at 1 h,940 nM
